Assay results as given in ChEMBL document CHEMBL2046324, “Synthesis and biological evaluation of 1-arylsulfonyl-5-(N-hydroxyacrylamide)indoles as potent histone deacetylase inhibitors with antitumor activity in vivo” (J Med Chem, 2012).

Protein sequences, listed by entry. Tags and fused reporters are not part of them.
UniProt Q92769, whole entry: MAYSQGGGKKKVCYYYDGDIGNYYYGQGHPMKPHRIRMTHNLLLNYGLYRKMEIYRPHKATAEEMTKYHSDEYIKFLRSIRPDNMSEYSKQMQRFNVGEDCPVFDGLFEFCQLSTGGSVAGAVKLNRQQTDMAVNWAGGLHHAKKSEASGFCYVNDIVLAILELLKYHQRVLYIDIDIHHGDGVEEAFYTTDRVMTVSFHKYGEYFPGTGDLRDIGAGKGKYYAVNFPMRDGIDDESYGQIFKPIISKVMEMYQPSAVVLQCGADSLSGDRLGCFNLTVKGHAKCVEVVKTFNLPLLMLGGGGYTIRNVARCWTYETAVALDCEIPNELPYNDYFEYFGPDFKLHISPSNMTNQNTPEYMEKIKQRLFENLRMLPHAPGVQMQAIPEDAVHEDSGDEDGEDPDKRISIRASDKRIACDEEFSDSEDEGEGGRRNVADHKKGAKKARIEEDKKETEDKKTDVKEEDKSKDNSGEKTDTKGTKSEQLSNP

Legend:
[1] = molecular target: T1, Protein deacetylase HDAC6 (Homo sapiens, UniProt Q9UBN7); experiment: Inhibition of human recombinant HDAC6 after 30 mins by fluorometric assay
T1 sequence (Q9UBN7 whole entry): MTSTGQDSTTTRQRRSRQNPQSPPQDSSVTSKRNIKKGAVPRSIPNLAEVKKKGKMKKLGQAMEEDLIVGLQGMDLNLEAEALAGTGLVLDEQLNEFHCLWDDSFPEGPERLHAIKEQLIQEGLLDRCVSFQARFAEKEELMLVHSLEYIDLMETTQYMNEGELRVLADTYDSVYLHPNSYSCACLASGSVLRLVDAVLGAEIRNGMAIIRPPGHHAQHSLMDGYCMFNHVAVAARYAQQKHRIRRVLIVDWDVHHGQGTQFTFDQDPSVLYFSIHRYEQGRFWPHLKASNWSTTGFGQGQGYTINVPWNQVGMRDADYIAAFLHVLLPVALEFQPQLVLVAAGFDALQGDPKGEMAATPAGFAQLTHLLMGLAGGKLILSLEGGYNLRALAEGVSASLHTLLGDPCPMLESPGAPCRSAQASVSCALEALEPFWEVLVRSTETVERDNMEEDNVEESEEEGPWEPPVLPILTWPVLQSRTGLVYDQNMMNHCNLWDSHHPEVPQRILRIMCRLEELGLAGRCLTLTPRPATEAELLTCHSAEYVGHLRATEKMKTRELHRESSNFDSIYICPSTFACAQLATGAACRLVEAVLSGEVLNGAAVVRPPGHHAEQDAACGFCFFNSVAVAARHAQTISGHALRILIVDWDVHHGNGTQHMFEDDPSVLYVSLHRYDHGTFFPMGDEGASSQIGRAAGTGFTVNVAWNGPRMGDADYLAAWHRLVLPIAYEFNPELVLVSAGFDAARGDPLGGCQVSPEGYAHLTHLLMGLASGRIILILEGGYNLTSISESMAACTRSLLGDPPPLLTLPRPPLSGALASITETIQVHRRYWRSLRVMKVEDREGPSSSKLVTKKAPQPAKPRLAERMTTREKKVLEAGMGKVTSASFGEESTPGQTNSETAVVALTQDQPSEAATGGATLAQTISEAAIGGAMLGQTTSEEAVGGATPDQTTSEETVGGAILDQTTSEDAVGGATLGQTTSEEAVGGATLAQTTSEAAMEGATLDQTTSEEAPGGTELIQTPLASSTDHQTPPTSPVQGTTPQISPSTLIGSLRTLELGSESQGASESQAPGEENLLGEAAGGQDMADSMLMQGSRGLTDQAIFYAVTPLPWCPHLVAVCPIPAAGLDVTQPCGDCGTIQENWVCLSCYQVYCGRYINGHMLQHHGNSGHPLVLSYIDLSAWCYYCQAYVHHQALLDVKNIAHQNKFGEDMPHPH

Histone deacetylase 2 = Histone deacetylase 2 (Homo sapiens, UniProt Q92769); experiment: Inhibition of human recombinant HDAC2 after 30 mins by fluorometric assay

IC50 [1]: 1 nM | IC50 (Histone deacetylase 2): 4 nM
SMILES: O=C(/C=C/c1ccc2c(ccn2S(=O)(=O)c2ccccc2)c1)NO
